Where a name gives a salt, the structure may show the parent alone. Read-outs that look alike come from different tables or passages of the source.
What was measured:
[1] = test system: acetylated α-tubulin (AcTub) levels in QBI293 cells; test: QBI293 cell assay of MT stabilization: acetylated α-tubulin ELISA; assay type: cell-based
[2] = test system: total α-tubulin (α-Tub) levels in QBI293 cells; test: QBI293 cell assay: total α-tubulin ELISA; assay type: cell-based
[3] = 4 h, QBI293 cells, 1 uM compound, read-out: AcTub (1uM)
[4] = 4 h, QBI293 cells, 10 uM compound, read-out: AcTub (10 uM)
[5] = QBI293 cells, 4 h incubation, 1 μM
[6] = QBI293 cells, 4 h incubation, 1 μM, read-out: AcTub 1 μM, fold-change compared to vehicle (DMSO)-treated cells
[7] = QBI293 cells, 4 h incubation, 10 μM
[8] = QBI293 cells, 4 h incubation, 10 μM, read-out: AcTub 10 μM, fold-change compared to vehicle (DMSO)-treated cells
[9] = 4 h, QBI293 cells, 1 uM compound, read-out: AlfaTub (1uM)
[10] = 4 h, QBI293 cells, 10 uM compound, read-out: AlfaTub (10 uM)
[11] = QBI293 cells, 4 h incubation, 1 μM, read-out: α-Tub 1 μM, fold-change compared to vehicle (DMSO)-treated cells
[12] = QBI293 cells, 4 h incubation, 10 μM, read-out: α-Tub 10 μM, fold-change compared to vehicle (DMSO)-treated cells

SMILES	AcTub (1uM) ([1]; QBI293 cells, 1 uM compound)	AcTub (1 uM - normalized) ([1]; QBI293 cells, 1 uM compound)	AcTub (10 uM) ([1]; QBI293 cells, 10 uM compound)	AcTub (10 uM - normalized) ([1]; QBI293 cells, 10 uM compound)	fold induction at 1 µM [1, 3]	fold induction at 10 µM [1, 4]	AcTub 1 μM, fold-change compared to positive control compound 5 (100 nM) (in parentheses) [1, 5] [fold-change]	fold induction at 1 µM [1, 6]	AcTub 10 μM, fold-change compared to positive control compound 5 (100 nM) (in parentheses) [1, 7] [fold-change]	fold induction at 10 µM [1, 8]	fold induction at 1 µM [2, 9]	fold induction at 10 µM [2, 10]	fold induction at 1 µM [2, 11]	fold induction at 10 µM [2, 12]	fold induction at 1 µM ([1]; QBI293, 4 h, read-out: AcTub 1 μM, fold-change compared to vehicle (DMSO)-treated cells)	fold induction at 10 µM ([1]; QBI293, 4 h, read-out: AcTub 10 μM, fold-change compared to vehicle (DMSO)-treated cells)	fold induction at 10 µM ([2]; QBI293, 4 h, read-out: α-Tub 10 μM, fold-change compared to vehicle (DMSO)-treated cells)
CC(C)[C@H](C)Nc1c(-c2c(F)cc(F)cc2F)c(Cl)nc2ncnn12 [Compound 7]	1.32	0.06	3.49	0.15													
CC(C)[C@@H](Nc1c(-c2c(F)cc(OCCCN(C)C)cc2F)c(Cl)nc2ncnn12)C(F)(F)F [Compound 22, (R)-3-(4-(5-Chloro-7-((1,1,1-trifluoro-3-methylbutan-2-yl)amino)-[1,2,4]triazolo[1,5-a]pyrimidin-6-yl)-3,5-difluorophenoxy)-N,N-dimethylpropan-1-aminium Formate]				0.81	10.7	8.41	1.04	10.7 ± 0.6	0.81	8.41 ± 0.31	1.08	1.13	1.08 ± 0.02				
CC(C)[C@H](Nc1c(-c2c(F)cc(OCCCN(C)C)cc2F)c(Cl)nc2ncnn12)C(F)(F)F [Compound 23, (S)-3-(4-(5-Chloro-7-((1,1,1-trifluoro-3-methylbutan-2-yl)amino)-[1,2,4]triazolo[1,5-a]pyrimidin-6-yl)-3,5-difluorophenoxy)-N,N-dimethylpropan-1-aminium Formate]				0.22	12	2.05	1.26		0.22		0.87			1.13 ± 0.02			
C[C@@H](Nc1c(-c2c(F)cc(OCCCN(C)C)cc2F)c(Cl)nc2ncnn12)C(C)(C)C [Compound 24, (R)-3-(4-(5-Chloro-7-((3,3-dimethylbutan-2-yl)amino)-[1,2,4]triazolo[1,5-a]pyrimidin-6-yl)-3,5-difluorophenoxy)-N,N-dimethylpropan-1-aminium Formate]		1.02		0.45	6.75	2.99		6.75 ± 0.32	0.45	2.99 ± 0.02	0.97	0.97	0.97 ± 0.06				
C[C@H](Nc1c(-c2c(F)cc(OCCCN(C)C)cc2F)c(Cl)nc2ncnn12)C(C)(C)C [Compound 27, (S)-5-Chloro-6-(4-(3-(dimethylamino)propoxy)-2,6-difluorophenyl)-N-(3,3-dimethylbutan-2-yl)-[1,2,4]triazolo[1,5-a]pyrimidin-7-aminium Formate]		1.27		0.65	8.41	4.33	1.27	8.41 ± 0.24	0.65	4.33 ± 0.21	0.76	0.92	0.76 ± 0.02	0.92 ± 0.03			
C[C@H](Nc1c(-c2c(F)cc(OCCCN(C)C)cc2F)c(Cl)nc2ncnn12)C1CC1 [Compound 31, (S)-3-(4-(5-Chloro-7-((1-cyclopropylethyl)amino)-[1,2,4]triazolo[1,5-a]pyrimidin-6-yl)-3,5-difluorophenoxy)-N,N-dimethylpropan-1-aminium Formate]		0.93			6.26		0.93	6.26 ± 0.11			0.59	0.91	0.59 ± 0.06	0.91 ± 0.09			
C[C@@H](Nc1c(-c2c(F)cc(OCCCN(C)C)cc2F)c(Cl)nc2ncnn12)C1CC1 [Compound 32, (R)-3-(4-(5-Chloro-7-((1-cyclopropylethyl)amino)-[1,2,4]triazolo[1,5-a]pyrimidin-6-yl)-3,5-difluorophenoxy)-N,N-dimethylpropan-1-aminium Formate]		1.55		0.08	10.4		1.55		0.08		1.04	1.31			10.4 ± 0.12	0.56 ± 0.08	1.31 ± 0.18

From publication PMC9841533, “Microtubule-Stabilizing 1,2,4-Triazolo[1,5-a]pyrimidines as Candidate Therapeutics for Neurodegenerative Disease: Matched Molecular Pair Analyses and Computational Studies Reveal New Structure–Activity Insights” (Journal of Medicinal Chemistry, 2022)
